These are literature values, as cited in patent US6779468B1, “Method and pharmaceutical composition for iron delivery in hemodialysis and peritoneal dialysis patients” (priority 1997, dated 2004).

For the series the following is noted: higher concentrations, intraperitoneal.

As for iron dextran, the “toxicity to the peritoneum” value is given as “toxic to the peritoneum”.
